This passage reports Imax and IC50 results from ChEMBL document CHEMBL4819022, “Discovery of JNJ-63576253: A Clinical Stage Androgen Receptor Antagonist for F877L Mutant and Wild-Type Castration-Resistant Prostate Cancer (mCRPC)” (J Med Chem, 2021).

Experiment [1] deals with Androgen receptor (Homo sapiens), P10275 [F877L]. Put plainly: Antagonist activity at AR F877L mutant (unknown origin) transfected in human LNCAP cells cotransfected with ARE-LUC incubated for 20 to 24 hrs in presence of AR agonist R1881 by steady-glo luciferase reporter gene assay relative to control. Conditions: filed as antagonist, time 20-24 hrs. The experiment is classed as cell-based. (In a reporter assay the amount or activity of a reporter protein is the signal.)

Experiment [2] concerns the target Androgen receptor F877L mutant (Homo sapiens). The experiment is described as follows: Antagonist activity at VP16-AR F877L mutant (unknown origin) transfected in human HepG2 cells cotransfected with ARE-LUC incubated for 48 hrs in presence of AR agonist R1881 by steady-glo luciferase reporter gene assay.
For another experiment, the target named is Androgen receptor (Homo sapiens, UniProt P10275). Put plainly: Antagonist activity at AR wild-type (unknown origin) transfected in human LNCAP cells cotransfected with ARE-LUC incubated for 20 to 24 hrs in presence of AR agonist R1881 by steady-glo luciferase reporter gene assay. The experiment is classed as cell-based.

Regarding `N#Cc1ncc(N2C(=O)C3(CCC3)N(c3ccc(O)cc3)C2=S)cc1C(F)(F)F`, in experiment [1], the Imax is over 90%.

As a reminder, the IC50 is the concentration at which inhibition is half-maximal. In the case of `CN1CCC(Oc2ccc(N3C(=S)N(c4cnc(C#N)c(C(F)(F)F)c4)C(=O)C34CCC4)cc2)CC1`, the IC50 in experiment [2] was 0.127 µM; on Androgen receptor it was 0.191 µM.
